Legend:
IGF-1R = IGF-1R (Homo sapiens, UniProt P08069); test: IGF-1R inhibition assay (Caliper EZ Reader); conditions: read-out: IC50 (nM) IGF-1R; enzyme assay
[1] = biological target: p-EGFR in H1975 cells (L858R/T790M double mutant EGFR) (UniProt P00533)
INSR = INSR (Homo sapiens, UniProt P06213); test: INSR inhibition assay (Caliper EZ Reader); conditions: read-out: IC50 (nM) INSR; enzyme assay
[2] = biological target: p-EGFR in A431 cells (wild type EGFR, EGF stimulated) (Homo sapiens, UniProt P00533); test: Wild type EGFR A431 autophosphorylation inhibition assay (ELISA); conditions: read-out: A431 IC50, cellular EGFR autophosphorylation, 2 h treatment, EGF stimulation 10 min
H1975 cells (DM) = test: H1975 inhibition assay (cell proliferation), Method B; assay type: cell-based; conditions: read-out: DM (H1975) IC50 nM, cellular proliferation, 72 h, several runs
[3] = biological target: p-EGFR in PC9 cells (Exon 19 deletion EGFR) (UniProt P00533); test: Exon19 deletion EGFR (activating single mutant) PC-9 cellular autophosphorylation assay; conditions: read-out: PC-9 IC50, 2 h treatment, ELISA
PC9 cells (SM) = test: PC-9 growth inhibition assay (cell proliferation), Method B; conditions: read-out: SM (PC9) IC50 nM, cellular proliferation, 72 h, several runs
A431 cells (WT) = test: A431 inhibition assay (cell proliferation), Method B; conditions: read-out: WT (A431) IC50 nM, cellular proliferation, 72 h, several runs

The chains behind the UniProt entries cited, without tags or fusion partners. Where a name states a change or a piece, a line headed by the entry shows the natural chain unless it says otherwise. Residues count along the entry.
UniProt P08069, 959-1367 limits assumed: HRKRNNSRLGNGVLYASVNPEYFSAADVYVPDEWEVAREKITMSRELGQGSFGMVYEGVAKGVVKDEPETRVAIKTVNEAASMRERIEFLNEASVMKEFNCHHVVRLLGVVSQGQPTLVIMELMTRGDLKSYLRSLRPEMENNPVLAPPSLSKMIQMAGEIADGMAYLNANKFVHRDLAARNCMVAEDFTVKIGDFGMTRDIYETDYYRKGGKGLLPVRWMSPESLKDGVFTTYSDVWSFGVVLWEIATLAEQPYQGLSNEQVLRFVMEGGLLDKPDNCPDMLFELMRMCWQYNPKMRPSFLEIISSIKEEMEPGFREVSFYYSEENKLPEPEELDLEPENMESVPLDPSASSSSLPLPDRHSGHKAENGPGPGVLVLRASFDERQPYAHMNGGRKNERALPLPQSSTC
UniProt P00533, whole entry, looked up: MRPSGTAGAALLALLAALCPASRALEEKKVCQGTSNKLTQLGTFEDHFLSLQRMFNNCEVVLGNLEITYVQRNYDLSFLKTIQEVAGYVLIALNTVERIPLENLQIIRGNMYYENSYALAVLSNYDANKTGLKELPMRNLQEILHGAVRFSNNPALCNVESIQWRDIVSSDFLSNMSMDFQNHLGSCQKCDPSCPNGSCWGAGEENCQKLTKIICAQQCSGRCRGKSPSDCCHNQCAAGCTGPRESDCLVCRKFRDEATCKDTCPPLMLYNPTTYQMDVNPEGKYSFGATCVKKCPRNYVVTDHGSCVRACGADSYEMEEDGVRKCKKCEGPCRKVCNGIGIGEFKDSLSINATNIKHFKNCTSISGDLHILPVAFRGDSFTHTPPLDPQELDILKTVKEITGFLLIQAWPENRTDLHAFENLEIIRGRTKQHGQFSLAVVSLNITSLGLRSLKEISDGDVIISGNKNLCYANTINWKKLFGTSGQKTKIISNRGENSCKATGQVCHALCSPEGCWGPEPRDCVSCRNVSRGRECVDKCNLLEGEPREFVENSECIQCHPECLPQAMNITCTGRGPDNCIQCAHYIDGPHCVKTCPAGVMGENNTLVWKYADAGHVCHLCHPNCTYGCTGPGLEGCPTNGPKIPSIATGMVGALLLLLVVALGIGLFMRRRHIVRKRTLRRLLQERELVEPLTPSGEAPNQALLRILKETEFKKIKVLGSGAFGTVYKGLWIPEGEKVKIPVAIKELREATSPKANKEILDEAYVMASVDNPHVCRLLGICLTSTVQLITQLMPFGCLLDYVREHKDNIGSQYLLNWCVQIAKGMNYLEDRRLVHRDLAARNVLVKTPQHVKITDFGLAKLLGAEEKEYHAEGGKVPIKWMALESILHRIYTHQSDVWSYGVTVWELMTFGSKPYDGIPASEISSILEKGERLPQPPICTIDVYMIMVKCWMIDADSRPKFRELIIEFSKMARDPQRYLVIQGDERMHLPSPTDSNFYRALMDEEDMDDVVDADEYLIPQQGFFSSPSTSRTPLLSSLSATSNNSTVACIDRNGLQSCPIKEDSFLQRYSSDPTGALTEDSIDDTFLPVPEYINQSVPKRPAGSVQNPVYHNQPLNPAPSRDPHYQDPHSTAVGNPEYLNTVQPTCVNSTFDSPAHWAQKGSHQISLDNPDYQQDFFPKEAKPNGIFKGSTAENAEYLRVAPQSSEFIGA
UniProt P00533, whole entry T790M/L858R, looked up: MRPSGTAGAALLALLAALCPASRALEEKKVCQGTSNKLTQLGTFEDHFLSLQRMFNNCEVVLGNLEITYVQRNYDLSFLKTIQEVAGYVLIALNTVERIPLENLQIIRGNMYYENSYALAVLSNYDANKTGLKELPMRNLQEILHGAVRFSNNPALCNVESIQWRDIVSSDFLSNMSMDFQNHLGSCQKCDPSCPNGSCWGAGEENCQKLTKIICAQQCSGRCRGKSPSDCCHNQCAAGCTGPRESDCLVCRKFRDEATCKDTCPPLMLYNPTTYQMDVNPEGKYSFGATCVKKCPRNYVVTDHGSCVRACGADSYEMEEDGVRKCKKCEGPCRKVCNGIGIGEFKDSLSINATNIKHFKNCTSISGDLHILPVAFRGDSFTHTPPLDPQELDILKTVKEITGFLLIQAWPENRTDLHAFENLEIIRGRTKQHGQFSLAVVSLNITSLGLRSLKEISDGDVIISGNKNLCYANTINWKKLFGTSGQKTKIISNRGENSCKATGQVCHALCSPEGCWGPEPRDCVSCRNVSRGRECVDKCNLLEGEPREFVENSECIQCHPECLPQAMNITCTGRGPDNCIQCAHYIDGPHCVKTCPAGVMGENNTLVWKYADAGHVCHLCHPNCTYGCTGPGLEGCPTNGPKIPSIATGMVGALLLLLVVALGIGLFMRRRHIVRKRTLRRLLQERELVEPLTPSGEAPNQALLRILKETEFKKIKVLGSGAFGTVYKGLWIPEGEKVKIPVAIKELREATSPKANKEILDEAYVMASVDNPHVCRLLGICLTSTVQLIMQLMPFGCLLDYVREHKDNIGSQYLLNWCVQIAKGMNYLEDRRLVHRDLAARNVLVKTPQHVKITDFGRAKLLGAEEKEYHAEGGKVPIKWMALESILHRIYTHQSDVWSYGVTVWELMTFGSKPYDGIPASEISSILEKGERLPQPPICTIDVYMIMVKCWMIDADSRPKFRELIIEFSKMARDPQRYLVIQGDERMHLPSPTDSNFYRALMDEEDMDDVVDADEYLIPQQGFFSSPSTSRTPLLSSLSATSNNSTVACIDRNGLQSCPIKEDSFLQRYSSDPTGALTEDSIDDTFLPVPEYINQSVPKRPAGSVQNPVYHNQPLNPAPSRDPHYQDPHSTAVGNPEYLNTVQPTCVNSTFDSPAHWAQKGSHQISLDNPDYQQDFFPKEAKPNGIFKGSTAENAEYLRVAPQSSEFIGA
UniProt P06213, 989-1382 limits assumed: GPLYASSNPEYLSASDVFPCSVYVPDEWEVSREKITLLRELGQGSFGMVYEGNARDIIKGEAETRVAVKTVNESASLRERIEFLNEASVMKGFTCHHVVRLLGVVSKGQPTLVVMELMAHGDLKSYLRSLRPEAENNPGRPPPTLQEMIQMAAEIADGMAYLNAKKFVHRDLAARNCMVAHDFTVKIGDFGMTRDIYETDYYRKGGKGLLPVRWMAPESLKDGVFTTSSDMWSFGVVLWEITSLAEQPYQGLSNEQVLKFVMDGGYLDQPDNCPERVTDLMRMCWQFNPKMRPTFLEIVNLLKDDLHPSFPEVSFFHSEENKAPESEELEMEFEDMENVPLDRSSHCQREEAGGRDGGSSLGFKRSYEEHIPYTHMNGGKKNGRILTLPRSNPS

## C=CC(=O)Nc1cc(Nc2nccc(-n3nc(NCC)c4ncccc43)n2)c(OC)cc1N(C)CCN(C)C
IGF-1R
  IC50: 869 nM
[1]
  IC50: 0.00305 µM
INSR
  IC50: 851 nM
[2]
  IC50: 0.0272 µM
H1975 cells (DM)
  IC50: 1.96 nM
[3]
  IC50: 0.00169 µM
PC9 cells (SM)
  IC50: 0.81 nM
A431 cells (WT)
  IC50: 440 nM

— US10435388B2, “Selective inhibitors of clinically important mutants of the EGFR tyrosine kinase” (CS PHARMATECH LIMITED, priority 2016, dated 2019)
